This note sets out measurements from patent US12304897B2, “15-PGDH inhibitors” (KYORIN PHARMACEUTICAL CO., LTD., priority 2019, dated 2025).

Chains of the proteins cited; added tags and fusions are not shown.
UniProt P15428, whole entry: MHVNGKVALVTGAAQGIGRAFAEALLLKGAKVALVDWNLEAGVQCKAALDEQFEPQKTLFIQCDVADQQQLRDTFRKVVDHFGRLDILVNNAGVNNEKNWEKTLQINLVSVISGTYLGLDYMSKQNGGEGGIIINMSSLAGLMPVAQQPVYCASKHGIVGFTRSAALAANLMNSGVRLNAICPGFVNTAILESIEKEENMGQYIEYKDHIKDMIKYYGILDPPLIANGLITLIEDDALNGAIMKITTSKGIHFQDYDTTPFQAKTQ

The structures appear in SMILES notation. pIC50: −log10 of the molar value.

The test has as its target recombinant human 15-PGDH (Homo sapiens (Human), UniProt P15428). Briefly: 15-PGDH enzyme inhibition test. Format: biochemical. The note with it: 4 nM recombinant human 15-PGDH, 30 μM PGE2, 1 mM NAD+, fluorescence 340/440 nm after 60 min.
With `O=C1NCc2cc(-c3cccc4cc(C(=O)N5CCC(F)(F)CC5)cnc34)cnc21`, the pIC50 is > 8.52.
As to `O=C(c1ccc2c(-c3ccc4c(=O)[nH]ncc4c3)cccc2c1)N1CCC(F)(F)CC1`, the pIC50 was > 8.52.
The same measure for `NC(=O)c1ncc(-c2cccc3cc(C(=O)N4CCC(F)(F)CC4)ccc23)cn1`: > 8.52.
The same measure for `CNC(=O)c1ncc(-c2cccc3cc(C(=O)N4CCC(F)(F)CC4)ccc23)cn1`: 8.00 to 8.52; for `COc1noc2cc(-c3cccc4cc(C(=O)N5CCC(F)(F)CC5)cnc34)ccc12`: < 8.00.
Take `O=C(c1cnc2c(-c3ccc4c(=O)[nH]ncc4c3)cccc2c1)N1CCC(F)(F)CC1`: the pIC50 is > 8.52.
